The chains are these.
B1: Transcription factor p65 (Homo sapiens), Q04206 (parent)
chain: MDELFPLIFPAEPAQASGPYVEIIEQPKQRGMRFRYKCEGRSAGSIPGERSTDTTKTHPTIKINGYTGPGTVRISLVTKDPPHRPHPHELVGKDCRDGFYEAELCPDRCIHSFQNLGIQCVKKRDLEQAISQRIQTNNNPFQVPIEEQRGDYDLNAVRLCFQVTVRDPSGRPLRLPPVLSHPIFDNRAPNTAELKICRVNRNSGSCLGGDEIFLLCDKVQKEDIEVYFTGPGWEARGSFSQADVHRQVAIVFRTPPYADPSLQAPVRVSMQLRRPSDRELSEPMEFQYLPDTDDRHRIEEKRKRTYETFKSIMKKSPFSGPTDPRPPPRRIAVPSRSSASVPKPAPQPYPFTSSLSTINYDEFPTMVFPSGQISQASALAPAPPQVLPQAPAPAPAPAMVSALAQAPAPVPVLAPGPPQAVAPPAPKPTQAGEGTLSEALLQLQFDDEDLGALLGNSTDPAVFTDLASVDNSEFQQLLNQGIPVAPHTTEPMLMEYPEAITRLVTGAQRPPDPAPAPLGAPGLPNGLLSGDEDFSSIADMDFSALLSQISS
partner: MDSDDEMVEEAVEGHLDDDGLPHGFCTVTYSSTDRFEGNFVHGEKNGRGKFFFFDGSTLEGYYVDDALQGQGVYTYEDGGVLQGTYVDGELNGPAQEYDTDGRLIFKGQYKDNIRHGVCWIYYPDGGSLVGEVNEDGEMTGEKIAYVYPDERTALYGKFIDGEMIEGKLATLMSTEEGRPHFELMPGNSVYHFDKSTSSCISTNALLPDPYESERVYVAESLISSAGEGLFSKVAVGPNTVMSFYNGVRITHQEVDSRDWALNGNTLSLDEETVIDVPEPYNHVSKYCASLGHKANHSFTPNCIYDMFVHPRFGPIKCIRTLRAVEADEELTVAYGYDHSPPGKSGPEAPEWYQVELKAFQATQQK

In the first assay the parent is B1. Conditions: with setd7_human SETD7, Q8WTS6.
With K314R, the “effect of a mutation on the interaction” value is “disrupting interaction”.

In the case of K315R, the “effect of a mutation on the interaction” value was “disrupting interaction”.

The variants in the next assay derive from B1. Conditions: with setd7_human SETD7, Q8WTS6. The source holds these as a separate data set.
For K314R, the “effect of a mutation on the interaction” value is listed as “decreasing interaction”.
